# Tested on: horse with pain due to laminitis
compound,measurement,setting,value
O=C(Nc1ccc(OC(F)(F)F)cc1)N[C@H]1CC[C@H](Oc2ccc(C(=O)O)cc2)CC1 [compound 1728],status at 30 days follow-up,30 days follow-up,normotensive and had no evidence of lameness
same,Pain scores following administration,"laminitic horse, 0.1 mg/kg once daily IV",decreased sharply and remarkably
same,hypertension (blood pressure) as treatment progressed,"laminitic horse, days 8 to 12",improved gradually towards normal physiologic values

# — US20200000755A1, “TREATMENT OF INFLAMMATORY DISORDERS IN NON-HUMAN MAMMALS” (THE REGENTS OF THE UNIVERSITY OF CALIFORNIA, priority 2012, published 2020)
